{"source": "patent US20100041920A1", "about": "“NEW SALT FORMS OF AN AMINOINDAN DERIVATIVE” (priority 2008, published 2010)", "key": {"[1]": {"conditions": "10 months, room temperature, ambient atmosphere"}}}
{"substance": "rasagiline L-tartrate", "values": [{"measurement": "Colour/Aspect 10 months later", "setting": "[1]", "value": "white powder"}, {"measurement": "Purity (HPLC) 10 months later", "setting": "[1]", "value": 99.52, "unit": "%"}, {"measurement": "XRD result 10 months later", "setting": "[1]", "value": "Form I"}, {"measurement": "XRD result Initial", "setting": "initial, before storage", "value": "Form I"}, {"measurement": "stability after ten months of storage (in words)", "setting": "ten months of storage", "value": "highly stable in terms of polymorphic form"}]}
